Settings: sorafenib monotherapy

Metabolic ratio (metabolite/sorafenib), AUC0–12 h: 0.10
Compound: CNC(=O)c1cc(Oc2ccc(NC(=O)Nc3ccc(Cl)c(C(F)(F)F)c3)cc2)cc[n+]1[O-] [Sorafenib-N-oxide, sorafenib-N-oxide]
